Reference: US20260115250A1, “METHODS OF TREATING AGE-RELATED MACULAR DEGENERATION” (Character Biosciences, Inc., priority 2022, published 2026)

Assay: DMPC solubility assay, 0.5 mM DMPC (turbidity reduction)
Type: biochemical
Settings: FIGS. 2A-2D and 3A-3C
Method: The safety and functional activities of the peptides described herein are illustrated in the figures and data provided herein. For example, FIGS. 2A-2D illustrate lipid solubilization activity, measured by reducing turbidity of 1,2-dimyristoyl-sn-glycero-3-phosphocholine (DMPC) liposome solutions, for each of the peptides shown. In this example, peptide stocks were diluted to 200 μM in H2O (a 2× solution) and 50 μL of peptide solution was transferred in triplicate into 96-well plates. A one mM solution of 1,2-dimyristoyl-sn-glycero-3-phosphocholine (DMPC) in H2O was prepared, and using a multichannel pipet, 50 μL DMPC solution was rapidly added to the plate. Peptide and lipid solutions were incubated at room temperature for 15 minutes with a final concentration of 100 μM peptides and 0.5 mM DMPC. After 15 minutes, absorbance was read on a plate reader at 405 nm. […] Data are presented as mean+SD over two runs. Nearly all tested peptides cleared over 50% of lipid over the course of the assay.
Eleven of the test peptides (T-025, T-027, T-051, T-052, T-054, T-059, T-062, T-063, T-065, T-069 and T-080) were examined in greater detail, as shown in FIGS. 3A-3C. In these experiments, DMPC solubility titration curves were generated. […] After 15 minutes, absorbance was read on a plate reader at 405 nm. […]

T-012: therapeutic peptide (QSTEELRVRLASHLRKLRKRLL)
DMPC solubilizing activity: significant activity
